According to patent publication US8742072B2, “Bone growth particles and osteoinductive composition thereof” (Zimmer Orthobiologics, Inc., priority 2006, dated 2014):

Columns and labels:
acid-soluble BMPs = settings: surface chemistry: alkaline (TCP, HA), moderately acidic (dical); cited from earlier work
[1] = From the text: Biologically compatible, sparingly soluble calcium phosphates are suitable supplements to locally increase the supply of soluble calcium [Ca^2+] and phosphate [PO4^3−] ions.

Equilibrium [Ca^2+] [1]: 2.2 µM
Equilibrium [PO4^3−] [1]: 1.3 µM
Insoluble fraction [200 mg/cc] [1]: 99.9999 wt. %
Substance: calcium hydroxyapatite [Ca5(PO4)3(OH) (HA)]
binding of acid-soluble BMPs / acidic proteins (acid-soluble BMPs): strongly bind
